Results from patent US12665203B2, “Organo-metallic analytes for nonaqueous redox flow batteries” (The Regents of the University of California, priority 2020, dated 2026).

Legend:
[1] = Solubility of complexes in MeCN by UV-Vis of saturated solutions; details: saturated solution in MeCN
[2] = Stability of complex in acetonitrile; type: physicochemical; details: MeCN

For (I2P2^−)(I2P^−)Al [compound 1], the “Cactive (solubility in MeCN)” value [1] was 19.8 mM.
In the case of [(I2P^−)2Al][PF6], the “Cactive (solubility in MeCN)” value [1] is reported as 97 mM and 96.7 ± 2.1 mM.
With [(I2P^−)(I2P)Al][AlCl4]2 [compound 3] the “stability of complex in acetonitrile” value [2] was “limited” and the “Cactive (solubility in MeCN)” value [1] was 450-550 mM and 450-550 ^a mM.

Values joined by “and” are separate entries in the source; they are usually repeats but may differ in a detail not shown here. Equal values may be shown once.
